Laboratory results reported in ChEMBL document CHEMBL5380861, “Design and Synthesis of Orexin 1 Receptor-Selective Agonists” (J Med Chem, 2023).

What was measured:
Type in all cases: functional, organism-based
Mus musculus [1] = test: Reinforcing effect on mouse assessed as place preference at 40 mg/kg, sc administered each day by CPP test
Mus musculus [2] = test: Antinociceptive activity in thermal stimulated sc dosed mouse measured after 30 mins by tail flick test; conditions: dose 20-60 mg/kg
Mus musculus [3] = test: Reinforcing effect on OX1R knock out mouse assessed as place preference at 40 mg/kg, sc administered each day by CPP test
Mus musculus [4] = test: Antinociceptive activity in thermal stimulated OX1R-knockout mouse at 60 mg/kg, sc measured after 30 mins by tail flick test

Row | Compound | Activity (Mus musculus [1]) | Activity (Mus musculus [2]) | Activity (Mus musculus [3]) | Activity (Mus musculus [4])
1 | COc1cccc(CC(=O)N(C)[C@H]2CCCc3ccc(NS(=O)(=O)c4cc(-c5cccc(C(=O)N(C)C)c5)ccc4OC)cc32)c1 | inactive | – | – | –
2 | COc1cccc(CC(=O)N(C)[C@@H]2CCCc3ccc(NS(=O)(=O)c4cc(-c5cccc(C(=O)N(C)C)c5)ccc4OC)cc32)c1 | Active | – | – | –
3 | COc1cccc(CC(=O)N(C)[C@@H]2CCCc3ccc(NS(=O)(=O)c4cc(/C=C/C(=O)Nc5ccncc5)ccc4OC)cc32)c1 | Active | Dose-Dependent Effect | inactive | inactive

Activity calls are given as the source filed them. The calls are words filed in the database; no cut-off is given here.
